Assay results: US20090247559A1 (Exelixis, Inc., priority 2007, published 2009)

By UniProt entry, the sequences of proteins in these tests, tags left out.
UniProt P68400, whole entry: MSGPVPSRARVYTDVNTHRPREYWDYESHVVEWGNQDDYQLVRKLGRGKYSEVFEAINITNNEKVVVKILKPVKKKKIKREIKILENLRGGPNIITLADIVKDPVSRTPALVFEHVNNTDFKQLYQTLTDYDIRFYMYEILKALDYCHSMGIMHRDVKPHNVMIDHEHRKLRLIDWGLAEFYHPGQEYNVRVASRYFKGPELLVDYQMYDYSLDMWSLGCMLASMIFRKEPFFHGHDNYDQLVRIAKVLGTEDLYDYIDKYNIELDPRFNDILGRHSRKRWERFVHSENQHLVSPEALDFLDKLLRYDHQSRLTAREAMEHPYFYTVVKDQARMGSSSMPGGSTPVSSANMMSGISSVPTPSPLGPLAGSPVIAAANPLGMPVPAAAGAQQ
UniProt P67870, whole entry partner: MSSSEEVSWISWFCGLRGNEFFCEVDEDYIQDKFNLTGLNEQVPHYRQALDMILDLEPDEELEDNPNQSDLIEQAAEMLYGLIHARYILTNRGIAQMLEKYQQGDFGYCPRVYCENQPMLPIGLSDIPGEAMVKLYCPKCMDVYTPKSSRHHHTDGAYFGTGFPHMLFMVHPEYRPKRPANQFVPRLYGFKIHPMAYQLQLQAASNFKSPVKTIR

Assays:
CK2 = CK2 (Homo sapiens, UniProt P68400); assay: CK2 inhibition, biochemical chemiluminescence holoenzyme assay (Kinase Glo, IC50 determination); settings: read-out: CK2 IC50 (Activity C); Table 1 activity class; symbol given only if active; tested form: HCl
[1] = target: PIM (PIM-1, PIM-2, and/or PIM-3)

Compound O=C1N(Cc2nc3c(oc4ccc(Br)cc43)c(=O)[nH]2)CN(c2ccccc2)C12CCNCC2 has an IC50 (CK2) of less than 10 µM and an IC50 [1] of less than 10 µM.
